Assay results reported in patent publication US8735360B2 (priority 2009, dated 2014).

Protein sequences, listed by entry. Tags and fused reporters are not part of them. Residues count along the entry.
UniProt P25092, 24-1073 limits assumed: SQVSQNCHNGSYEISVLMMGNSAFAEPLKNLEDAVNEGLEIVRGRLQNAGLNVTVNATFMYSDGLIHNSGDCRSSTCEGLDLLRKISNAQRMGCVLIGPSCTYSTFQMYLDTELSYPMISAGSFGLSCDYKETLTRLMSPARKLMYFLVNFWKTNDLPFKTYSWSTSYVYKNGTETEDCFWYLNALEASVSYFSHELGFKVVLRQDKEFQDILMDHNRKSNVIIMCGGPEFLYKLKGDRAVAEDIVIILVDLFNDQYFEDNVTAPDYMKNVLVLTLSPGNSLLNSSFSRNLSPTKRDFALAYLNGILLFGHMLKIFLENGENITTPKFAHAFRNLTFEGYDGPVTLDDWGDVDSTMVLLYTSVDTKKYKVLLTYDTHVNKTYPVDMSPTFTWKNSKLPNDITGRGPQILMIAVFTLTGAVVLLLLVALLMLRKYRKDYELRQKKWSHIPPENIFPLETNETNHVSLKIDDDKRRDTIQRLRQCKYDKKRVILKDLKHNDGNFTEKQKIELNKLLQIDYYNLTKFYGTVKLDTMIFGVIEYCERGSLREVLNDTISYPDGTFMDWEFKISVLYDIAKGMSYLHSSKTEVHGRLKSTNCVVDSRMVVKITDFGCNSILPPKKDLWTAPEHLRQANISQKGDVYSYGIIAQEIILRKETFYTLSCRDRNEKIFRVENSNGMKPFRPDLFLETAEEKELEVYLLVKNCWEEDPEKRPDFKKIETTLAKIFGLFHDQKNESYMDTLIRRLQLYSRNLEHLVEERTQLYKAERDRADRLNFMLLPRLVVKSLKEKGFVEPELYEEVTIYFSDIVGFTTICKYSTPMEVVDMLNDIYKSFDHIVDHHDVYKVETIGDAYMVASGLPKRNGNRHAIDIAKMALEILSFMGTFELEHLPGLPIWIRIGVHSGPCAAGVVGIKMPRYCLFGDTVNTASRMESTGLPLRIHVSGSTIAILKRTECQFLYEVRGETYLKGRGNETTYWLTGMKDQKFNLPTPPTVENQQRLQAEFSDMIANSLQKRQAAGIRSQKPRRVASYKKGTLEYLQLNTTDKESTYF

Legend:
[1] = target: T1, GC-C (Homo sapiens, UniProt P25092); assay type: cell-based; conditions: cGMP response in T84 cells
[2] = target: T1, GC-C; assay type: binding
[3] = system: female CD-1 mice; assay type: in vivo; conditions: oral gavage, % distance travelled by charcoal front in small intestine

## C[C@@H]1NC(=O)[C@@H]2CCCN2C(=O)[C@H](CC(N)=O)NC(=O)[C@@H]2CSSC[C@H](NC(=O)[C@H](CC(=O)O)NC(=O)[C@H](CC(=O)O)NC(=O)[C@H](N)CC(=O)O)C(=O)N[C@H]3CSSC[C@H](NC1=O)C(=O)N[C@@H]([C@@H](C)O)C(=O)NCC(=O)N[C@H](C(=O)N[C@@H](Cc1ccc(O)cc1)C(=O)O)CSSC[C@H](NC(=O)[C@H](Cc1ccc(O)cc1)NC(=O)[C@H](CCC(=O)O)NC3=O)C(=O)N2 [Peptide 6, dDDDCCEYCCNPACTGCY]
[1]
  Ratio EC50 pH 8/EC50 pH 5: 146
[2]
  Ratio Ki pH 8/Ki pH 5: 6.59

## C[C@@H]1NC(=O)[C@@H]2CCCN2C(=O)[C@H](CC(N)=O)NC(=O)[C@@H]2CSSC[C@H](NC(=O)[C@H](CC(=O)O)NC(=O)[C@H](CC(=O)O)NC(=O)[C@@H](C)N)C(=O)N[C@H]3CSSC[C@H](NC1=O)C(=O)N[C@@H]([C@@H](C)O)C(=O)NCC(=O)N[C@H](C(=O)N[C@@H](Cc1ccc(O)cc1)C(=O)O)CSSC[C@H](NC(=O)[C@H](Cc1ccc(O)cc1)NC(=O)[C@H](CCC(=O)O)NC3=O)C(=O)N2 [Peptide 10, dADDCCEYCCNPACTGCY]
[1]
  Ratio EC50 pH 8/EC50 pH 5: 76.4
[2]
  Ratio Ki pH 8/Ki pH 5: 3.87
[3]
  ED50 in the gastrointestinal transit assay: 13.7 µg/kg

## CC(C)C[C@@H]1NC(=O)[C@H](CCC(=O)O)NC(=O)[C@@H]2CSSC[C@@H]3NC(=O)[C@H](C)NC(=O)[C@@H]4CCCN4C(=O)[C@H](CC(N)=O)NC(=O)[C@H](CSSC[C@H](NC(=O)[C@H](CC(=O)O)NC(=O)[C@H](CC(=O)O)NC(=O)[C@H](N)CC(N)=O)C(=O)N2)NC(=O)[C@H](CSSC[C@@H](C(=O)N[C@@H](Cc2ccc(O)cc2)C(=O)O)NC(=O)CNC(=O)[C@H]([C@@H](C)O)NC3=O)NC1=O [Peptide 12, dNDDCCELCCNPACTGCY]
[1]
  Ratio EC50 pH 8/EC50 pH 5: 96.1
[2]
  Ratio Ki pH 8/Ki pH 5: 2.70

## CC(C)C[C@@H]1NC(=O)[C@H](CCC(=O)O)NC(=O)[C@@H]2CSSC[C@@H]3NC(=O)[C@H](C)NC(=O)[C@@H]4CCCN4C(=O)[C@H](CC(N)=O)NC(=O)[C@H](CSSC[C@H](NC(=O)[C@H](CC(=O)O)NC(=O)[C@H](CC(=O)O)NC(=O)[C@@H](C)N)C(=O)N2)NC(=O)[C@H](CSSC[C@@H](C(=O)N[C@@H](Cc2ccc(O)cc2)C(=O)O)NC(=O)CNC(=O)[C@H]([C@@H](C)O)NC3=O)NC1=O [Peptide 14, dADDCCELCCNPACTGCY]
[1]
  Ratio EC50 pH 8/EC50 pH 5: 166.2
[2]
  Ratio Ki pH 8/Ki pH 5: 0.52
[3]
  ED50 in the gastrointestinal transit assay: 3.04 µg/kg

## CC(C)C[C@@H]1NC(=O)[C@H](CCC(=O)O)NC(=O)[C@@H]2CSSC[C@@H]3NC(=O)[C@H](C)NC(=O)[C@@H]4CCCN4C(=O)[C@H](CC(N)=O)NC(=O)[C@H](CSSC[C@H](NC(=O)[C@H](CC(=O)O)NC(=O)[C@H](CC(=O)O)NC(=O)CCN)C(=O)N2)NC(=O)[C@H](CSSC[C@@H](C(=O)N[C@@H](Cc2ccc(O)cc2)C(=O)O)NC(=O)CNC(=O)[C@H]([C@@H](C)O)NC3=O)NC1=O [Peptide 15, βADDCCELCCNPACTGCY]
[1]
  Ratio EC50 pH 8/EC50 pH 5: 110.2

## CC(C)C[C@@H]1NC(=O)[C@H](CCC(=O)O)NC(=O)[C@@H]2CSSC[C@@H]3NC(=O)[C@H](C)NC(=O)[C@@H]4CCCN4C(=O)[C@H](CC(N)=O)NC(=O)[C@H](CSSC[C@H](NC(=O)[C@H](CC(=O)O)NC(=O)[C@H](CC(=O)O)NC(=O)[C@@H](N)CC(=O)O)C(=O)N2)NC(=O)[C@H](CSSC[C@@H](C(=O)N[C@H](Cc2ccc(O)cc2)C(=O)O)NC(=O)CNC(=O)[C@H]([C@@H](C)O)NC3=O)NC1=O [Peptide 21, DDDCCELCCNPACTGCdY]
[1]
  Ratio EC50 pH 8/EC50 pH 5: 42.4
[2]
  Ratio Ki pH 8/Ki pH 5: 5.1
